Molecular target: JAK3 (Homo sapiens (Human), UniProt P52333)
Assay type: biochemical
Description: Assay 1: Biochemical JAK and Off-Target Kinase Assays
A panel of four LanthaScreen JAK biochemical assays (JAK1, 2, 3 and Tyk2) were carried in a common kinase reaction buffer (50 mM HEPES, pH 7.5, 0.01% Brij-35, 10 mM MgCl2, and 1 mM EGTA). Recombinant GST-tagged JAK enzymes and a GFP-tagged STAT1 peptide substrate were obtained from Life Technologies.
Serially diluted compounds were pre-incubated with each of the four JAK enzymes and the substrate in white 384-well microplates (Corning) at ambient temperature for 1 h. ATP was subsequently added to initiate the kinase reactions in 10 μL total volume, with 1% DMSO. […] Kinase reactions were allowed to proceed for 1 hour at ambient temperature before a 10 μL preparation of EDTA (10 mM final concentration) and Tb-anti-pSTAT1 (pTyr701) antibody (Life Technologies, 2 nM final concentration) in TR-FRET dilution buffer (Life Technologies) was added. The plates were allowed to incubate at ambient temperature for 1 h before being read on the EnVision reader (Perkin Elmer).
Results were expressed as pIC50 (negative logarithm of IC50) and subsequently converted to pKi (negative logarithm of dissociation constant, Ki) using the Cheng-Prusoff equation.

Amino acid sequences for entries named in this document (tags omitted). A change or cut given only in a name is not applied to a line headed by its entry.
UniProt P52333: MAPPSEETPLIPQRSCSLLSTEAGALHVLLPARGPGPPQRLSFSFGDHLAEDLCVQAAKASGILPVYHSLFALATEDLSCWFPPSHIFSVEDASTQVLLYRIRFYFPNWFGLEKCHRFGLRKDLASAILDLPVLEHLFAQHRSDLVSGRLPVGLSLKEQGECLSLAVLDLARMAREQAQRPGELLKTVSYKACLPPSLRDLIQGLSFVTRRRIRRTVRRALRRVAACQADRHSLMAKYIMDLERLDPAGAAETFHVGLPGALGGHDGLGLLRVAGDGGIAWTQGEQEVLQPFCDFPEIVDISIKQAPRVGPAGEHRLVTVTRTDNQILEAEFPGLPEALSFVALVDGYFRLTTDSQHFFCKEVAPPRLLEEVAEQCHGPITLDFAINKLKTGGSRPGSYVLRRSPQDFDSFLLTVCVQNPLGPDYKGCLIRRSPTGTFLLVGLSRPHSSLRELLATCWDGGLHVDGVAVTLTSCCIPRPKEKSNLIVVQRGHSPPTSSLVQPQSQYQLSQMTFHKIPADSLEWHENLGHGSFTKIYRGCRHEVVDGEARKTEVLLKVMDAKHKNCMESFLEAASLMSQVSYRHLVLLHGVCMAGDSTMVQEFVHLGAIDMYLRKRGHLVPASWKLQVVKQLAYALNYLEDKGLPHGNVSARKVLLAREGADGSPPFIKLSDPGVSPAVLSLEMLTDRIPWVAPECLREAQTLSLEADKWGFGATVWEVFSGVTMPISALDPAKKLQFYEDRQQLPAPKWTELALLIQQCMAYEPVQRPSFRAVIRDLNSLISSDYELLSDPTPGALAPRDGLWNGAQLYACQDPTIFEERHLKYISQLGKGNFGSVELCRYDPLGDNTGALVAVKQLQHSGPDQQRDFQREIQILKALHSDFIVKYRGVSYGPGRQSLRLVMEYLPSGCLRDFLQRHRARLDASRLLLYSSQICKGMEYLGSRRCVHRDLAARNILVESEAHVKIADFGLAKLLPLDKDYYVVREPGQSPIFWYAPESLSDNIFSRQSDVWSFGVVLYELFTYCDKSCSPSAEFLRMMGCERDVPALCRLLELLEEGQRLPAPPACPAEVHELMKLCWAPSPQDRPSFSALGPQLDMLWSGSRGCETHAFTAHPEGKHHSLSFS

Cc1cc(Nc2cc3ncccc3c(N[C@@H]3C[C@H]4CC[C@@H](C3)N4C3CCOC3=O)n2)n[nH]1 (stereo partly shown) [Example 1-26]
JAK 3 (pKi): C (C represents a pKi value between 7 and 9 (Ki between 100 nM and 1 nM))
